# The list shows a part of the results, in another mix than the full data. Calls of active or inactive are those of the source.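 The calls were made as follows: active = inhibition above the mean inhibition across every tested compound plus 3 SD (cut at about 22% in these data); inactive = the rest.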
# Sequences of proteins named here, by UniProt entry; tags and fusion partners are left off.
# UniProt Q00G26, whole entry, looked up: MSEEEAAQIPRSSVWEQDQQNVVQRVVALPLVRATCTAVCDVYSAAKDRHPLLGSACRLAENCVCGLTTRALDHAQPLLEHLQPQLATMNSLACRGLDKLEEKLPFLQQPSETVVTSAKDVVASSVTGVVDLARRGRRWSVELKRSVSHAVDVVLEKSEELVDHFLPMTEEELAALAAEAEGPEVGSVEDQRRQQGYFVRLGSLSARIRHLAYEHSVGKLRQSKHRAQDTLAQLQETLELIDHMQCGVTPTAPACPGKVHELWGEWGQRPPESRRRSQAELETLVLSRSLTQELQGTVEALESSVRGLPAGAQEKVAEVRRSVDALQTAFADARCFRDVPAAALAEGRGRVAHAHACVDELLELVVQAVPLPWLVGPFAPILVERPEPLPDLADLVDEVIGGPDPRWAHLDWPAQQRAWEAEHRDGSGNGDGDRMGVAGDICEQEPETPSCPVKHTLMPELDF
# UniProt Q8WTS1, whole entry, looked up: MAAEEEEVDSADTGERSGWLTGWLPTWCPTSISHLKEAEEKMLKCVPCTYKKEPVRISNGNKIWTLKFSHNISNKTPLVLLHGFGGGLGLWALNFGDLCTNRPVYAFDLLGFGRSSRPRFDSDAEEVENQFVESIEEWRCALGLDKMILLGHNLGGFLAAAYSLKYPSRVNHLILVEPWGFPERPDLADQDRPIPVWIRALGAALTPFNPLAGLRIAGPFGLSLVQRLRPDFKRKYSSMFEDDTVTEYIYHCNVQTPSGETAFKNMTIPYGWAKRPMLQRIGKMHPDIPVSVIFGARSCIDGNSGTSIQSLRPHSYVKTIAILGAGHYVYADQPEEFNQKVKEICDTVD
# Target: Perilipin-5 (Homo sapiens) + 1-acylglycerol-3-phosphate O-acyltransferase ABHD5 (Homo sapiens) (UniProt Q00G26+Q8WTS1)
# Assay: ABHD5-PLIN5 interaction inhibitors, primary screen, cell lysate, split luciferase complementation, luminescence (AID 602281);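 also: 0% = DMSO only wells and the 100% control is not disclosed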
# Conditions: Split G. princeps luciferase complementation, 4 h, at 4 µM, stronger effect = higher value
row,Structure (SMILES),inhibition
1,CCC(=O)N(c1ccccc1)C1(COC)CCN(CCc2cccs2)CC1,active: 46%
2,CCC(=O)N(c1ccccc1)C1(COC)CCN(CCn2nnn(CC)c2=O)CC1,inactive: 2.19%

# Reference: PubChem BioAssay AID602281 (The Scripps Research Institute Molecular Screening Center, 2012)
